Measured values as given in patent US10988792B2, “Methods for antimicrobial resistance determination” (bioMerieux, Inc., priority 2009, dated 2021).

System: E. faecium 14054 (VSE)
Assay: Co-culture with vancomycin and Sytox Green, intrinsic fluorescence and membrane integrity of pellet
Format: cell-based
Settings: for Microbial NADH fluorescence (Ex340 nm/Em440 nm) / Microbial tryptophan fluorescence (Ex300 nm/Em360 nm): 14054 (VSE)
Method: For each test strain, a 1 μL loopful of colonies from a 24-48 hour plate was suspended in 10-12 mL of BacT/ALERT SA media and cultured for 4-9 hours at 37° C. Samples of each log phase culture were then incubated with 0, 0.25, 2.5 and 12.5 μg/mL of vancomycin-HCl in combination with 1:5000 dilution of stock Sytox Green, a viable cell impermeant DNA stain (Molecular Probes, cat #S7020), for a period of 4 hours at 37° C. Aliquots of the cultures were removed for analysis immediately (T0) and after 1, 2.5 and 4 hours.
At the appropriate time-point, 0.5 mL aliquots of the cultures (0.5 mL) were overlaid on a density cushion composed of 24% w/v CsCl in 10 mM Hepes, pH 7.4 and 0.005% Pluronic F-108 contained in custom-made optical centrifugation tubes as disclosed in related U.S. patent application, Ser. No. 12/589,969, entitled “Separation Device for Use in the Separation, Characterization and/or Identification of Microorganisms”, filed Oct. 30, 2009. The tubes were sealed and centrifuged at 10,000 rpm for 2 minutes to separate intact microorganisms from the culture medium and unbound chemicals. The tubes were then placed into a custom-built tube holder directly onto a fiber optic probe built into the base. The probe was attached to a FluoroLog 3 spectrofluorimeter. The tube was interrogated through its UV-transparent base, and fluorescence and diffuse reflectance readings collected.

[1] = VSE strain 14054, vancomycin 2.5 and 12.5 μg/mL

## CN[C@H](CC(C)C)C(=O)N[C@H]1C(=O)N[C@@H](CC(N)=O)C(=O)N[C@H]2C(=O)N[C@H]3C(=O)N[C@H](C(=O)N[C@H](C(=O)O)c4cc(O)cc(O)c4-c4cc3ccc4O)[C@H](O)c3ccc(c(Cl)c3)Oc3cc2cc(c3O[C@@H]2O[C@H](CO)[C@@H](O)[C@H](O)[C@H]2O[C@H]2C[C@](C)(N)[C@H](O)[C@H](C)O2)Oc2ccc(cc2Cl)[C@H]1O [vancomycin]
Vanc. 0.25 μg/mL, 1 hour
  Microbial NADH fluorescence (Ex340 nm/Em440 nm): 298,998
  Microbial tryptophan fluorescence (Ex300 nm/Em360 nm): 601,874
Vanc. 0.25 μg/mL, 2.5 hour
  Microbial NADH fluorescence (Ex340 nm/Em440 nm): 733,656
  Microbial tryptophan fluorescence (Ex300 nm/Em360 nm): 670,217
Vanc. 0.25 μg/mL, 4 hour
  Microbial NADH fluorescence (Ex340 nm/Em440 nm): 534,989
  Microbial tryptophan fluorescence (Ex300 nm/Em360 nm): 808,566
Vanc. 0.25 μg/mL, Zero time
  Microbial NADH fluorescence (Ex340 nm/Em440 nm): 449,599
  Microbial tryptophan fluorescence (Ex300 nm/Em360 nm): 387,455
Vanc. 2.5 μg/mL, 1 hour
  Microbial NADH fluorescence (Ex340 nm/Em440 nm): 195,152
  Microbial tryptophan fluorescence (Ex300 nm/Em360 nm): 431,754
Vanc. 2.5 μg/mL, 2.5 hour
  Microbial tryptophan fluorescence (Ex300 nm/Em360 nm): 437,349
Vanc. 2.5 μg/mL, 4 hour
  Microbial NADH fluorescence (Ex340 nm/Em440 nm): 96,954
  Microbial tryptophan fluorescence (Ex300 nm/Em360 nm): 428,796
Vanc. 2.5 μg/mL, Zero time
  Microbial NADH fluorescence (Ex340 nm/Em440 nm): 290,986
  Microbial tryptophan fluorescence (Ex300 nm/Em360 nm): 369,386
Vanc. 12.5 μg/mL, 1 hour
  Microbial NADH fluorescence (Ex340 nm/Em440 nm): 188,273
  Microbial tryptophan fluorescence (Ex300 nm/Em360 nm): 421,876
Vanc. 12.5 μg/mL, 2.5 hour
  Microbial NADH fluorescence (Ex340 nm/Em440 nm): 128,491
  Microbial tryptophan fluorescence (Ex300 nm/Em360 nm): 387,066
Vanc. 12.5 μg/mL, 4 hour
  Microbial NADH fluorescence (Ex340 nm/Em440 nm): 109,080
  Microbial tryptophan fluorescence (Ex300 nm/Em360 nm): 403,029
Vanc. 12.5 μg/mL, Zero time
  Microbial tryptophan fluorescence (Ex300 nm/Em360 nm): 384,046
[1]
  Course of cellular NADH levels: gradually declined over time
  Course of cellular tryptophan levels: remained stable over time
